Measurements taken from ChEMBL document CHEMBL3885881, “DrugMatrix”.

Organism: Rattus norvegicus
Assay: DrugMatrix - Regimen: Daily Repeat
Type: toxicity, organism-based, Sprague-Dawley
Design: regimen Daily Repeat, gender Male, age 6-8 weeks
Conditions: in vivo
[1] = po, 0 mg/kg, 72 h, tissue Plasma, route oral GAVAGE, dose level Control, time 3 day, vehicle 100 % WATER
[2] = po, 0 mg/kg, 120 h, tissue Plasma, route oral GAVAGE, dose level Control, time 5 day, […]
[3] = po, 10 mg/kg, 72 h, tissue Plasma, route oral GAVAGE, dose level M1, time 3 day, […]
[4] = po, 10 mg/kg, 120 h, tissue Plasma, route oral GAVAGE, dose level M1, time 5 day, […]
[5] = po, 32 mg/kg, 72 h, tissue Plasma, route oral GAVAGE, dose level M2, time 3 day, […]
[6] = po, 32 mg/kg, 120 h, tissue Plasma, route oral GAVAGE, dose level M2, time 5 day, […]
[7] = po, 64 mg/kg, 72 h, tissue Plasma, route oral GAVAGE, dose level High, time 3 day, […]
[8] = po, 64 mg/kg, 120 h, tissue Plasma, route oral GAVAGE, dose level High, time 5 day, […]
[9] = po, […], 72 h, tissue Plasma, route oral GAVAGE, dose 2.5 mg/Kg, dose level Low, time 3 day
[10] = po, […], 120 h, tissue Plasma, route oral GAVAGE, dose 2.5 mg/Kg, dose level Low, time 5 day
[11] = po, 47 mg/kg, 120 h, tissue Plasma, route oral GAVAGE, dose level Low, time 5 day, vehicle .5 % CMC
[12] = po, 500 mg/kg, 72 h, tissue Plasma, route oral GAVAGE, dose level High, time 3 day, vehicle .5 % CMC
[13] = po, 500 mg/kg, 120 h, tissue Plasma, route oral GAVAGE, dose level High, time 5 day, vehicle .5 % CMC

THIMEROSAL
HEMOGLOBIN (po, 0 mg/kg, 72 h, tissue Blood, route oral GAVAGE, dose level Control, time 3 day, vehicle 100 % WATER): 13.43 G/DL
ALBUMIN [1]: 3.78 G/DL
GLUCOSE [1]: 169.33 mg/dL
NEUTROPHIL (po, 1 mg/kg, 120 h, tissue Blood, route oral GAVAGE, dose level Low, time 5 day, vehicle 100 % WATER): 9.33%
ABSOLUTE LYMPHOCYTE (po, 10 mg/kg, 72 h, tissue Blood, route oral GAVAGE, dose level High, time 3 day, vehicle 100 % WATER): 12478.33 CELLS/uL
MEAN CORPUSCULAR HEMOGLOBIN CONCENTRATION (po, 10 mg/kg, 120 h, tissue Blood, route oral GAVAGE, dose level High, time 5 day, vehicle 100 % WATER): 39.37 G/DL

CCN(CC)CCNC(=O)c1cc(Cl)c(N)cc1OC [METOCLOPRAMIDE]
MEAN CORPUSCULAR HEMOGLOBIN CONCENTRATION (po, 30 mg/kg, 72 h, tissue Blood, route oral GAVAGE, dose level Low, time 3 day, vehicle .5 % CMC): 37.2 G/DL

Cc1nc2n(c(=O)c1CCN1CCC(c3noc4cc(F)ccc34)CC1)CCCC2 [RISPERIDONE]
MONOCYTE (po, 0 mg/kg, 72 h, tissue Blood, route oral GAVAGE, dose level Control, time 3 day, vehicle .5 % CMC): 1.4%
MONOCYTE (po, 0 mg/kg, 120 h, tissue Blood, route oral GAVAGE, dose level Control, time 5 day, vehicle .5 % CMC): 1.67%
MONOCYTE (po, 22 mg/kg, 120 h, tissue Blood, route oral GAVAGE, dose level High, time 5 day, vehicle .5 % CMC): 1.33%
MONOCYTE (po, […], 72 h, tissue Blood, route oral GAVAGE, dose 2.4 mg/Kg, dose level Low, time 3 day, vehicle .5 % CMC): 1%
MONOCYTE (po, […], 120 h, tissue Blood, route oral GAVAGE, dose 2.4 mg/Kg, dose level Low, time 5 day, vehicle .5 % CMC): 4.67%

CC/C(=C(\c1ccccc1)c1ccc(OCCN(C)C)cc1)c1ccccc1 [TAMOXIFEN]
CHLORIDE (po, 0 mg/kg, 72 h, tissue Plasma, route oral GAVAGE, dose level Control, time 3 day, […]): 101.83 MEQ/L
PHOSPHORUS [2]: 10.02 mg/dL
SODIUM [2]: 144.63 MEQ/L
CHLORIDE [3]: 104.67 MEQ/L
PHOSPHORUS [3]: 12.97 mg/dL
SODIUM [3]: 145.9 MEQ/L
CHLORIDE [4]: 106 MEQ/L
PHOSPHORUS [4]: 13.3 mg/dL
SODIUM [4]: 148.9 MEQ/L
CHLORIDE [5]: 105.33 MEQ/L
PHOSPHORUS [5]: 13.4 mg/dL
SODIUM [5]: 146.47 MEQ/L
CHLORIDE [6]: 108.67 MEQ/L
PHOSPHORUS [6]: 12.2 mg/dL
SODIUM [6]: 152.07 MEQ/L
CHLORIDE [7]: 104 MEQ/L
PHOSPHORUS [7]: 9.57 mg/dL
SODIUM [7]: 147.93 MEQ/L
CHLORIDE [8]: 101.67 MEQ/L
PHOSPHORUS [8]: 10.47 mg/dL
SODIUM [8]: 146.1 MEQ/L
CHLORIDE [9]: 102.33 MEQ/L
PHOSPHORUS [9]: 9.97 mg/dL
SODIUM [9]: 147.73 MEQ/L
CHLORIDE [10]: 100.33 MEQ/L
PHOSPHORUS [10]: 10.47 mg/dL
SODIUM [10]: 145.8 MEQ/L

O=C(CCCN1CCC(O)(c2ccc(Cl)cc2)CC1)c1ccc(F)cc1 [HALOPERIDOL]
ERYTHROCYTE COUNT (po, 1 mg/kg, 120 h, tissue Blood, route oral GAVAGE, dose level Low, time 5 day, […]): 5.45 x10E6/uL
ERYTHROCYTE COUNT (po, 21 mg/kg, 72 h, tissue Blood, route oral GAVAGE, dose level High, time 3 day, […]): 6.17 x10E6/uL
ERYTHROCYTE COUNT (po, 21 mg/kg, 120 h, tissue Blood, route oral GAVAGE, dose level High, time 5 day, […]): 5.96 x10E6/uL

CN[C@H](CC(C)C)C(=O)N[C@H]1C(=O)N[C@@H](CC(N)=O)C(=O)N[C@H]2C(=O)N[C@H]3C(=O)N[C@H](C(=O)N[C@H](C(=O)O)c4cc(O)cc(O)c4-c4cc3ccc4O)[C@H](O)c3ccc(c(Cl)c3)Oc3cc2cc(c3O[C@@H]2O[C@H](CO)[C@@H](O)[C@H](O)[C@H]2O[C@H]2C[C@](C)(N)[C@H](O)[C@H](C)O2)Oc2ccc(cc2Cl)[C@H]1O [VANCOMYCIN]
LIPASE (iv, 25 mg/kg, 72 h, tissue Plasma, dose level Low, time 3 day, vehicle 100 % SALINE): 9 u/L
NEUTROPHIL (iv, 25 mg/kg, 120 h, tissue Blood, dose level Low, time 5 day, vehicle 100 % SALINE): 4%
LIPASE (iv, 25 mg/kg, 120 h, tissue Plasma, dose level Low, time 5 day, vehicle 100 % SALINE): 8.67 u/L
NEUTROPHIL (iv, 160 mg/kg, 72 h, tissue Blood, dose level High, time 3 day, vehicle 100 % SALINE): 11%
NEUTROPHIL (iv, 160 mg/kg, 120 h, tissue Blood, dose level High, time 5 day, vehicle 100 % SALINE): 14.33%

OCCOCCN1CCN(C2=Nc3ccccc3Sc3ccccc32)CC1 [QUETIAPINE]
PHOSPHORUS (po, 47 mg/kg, 72 h, tissue Plasma, route oral GAVAGE, dose level Low, time 3 day, vehicle .5 % CMC): 11.4 mg/dL
ALKALINE PHOSPHATASE [11]: 292.33 u/L
PHOSPHORUS [11]: 14.33 mg/dL
ALKALINE PHOSPHATASE [12]: 332 u/L
CHLORIDE [12]: 101.67 MEQ/L
ALKALINE PHOSPHATASE [13]: 307.33 u/L
PHOSPHORUS [13]: 12.27 mg/dL

CN(C)CCCN1c2ccccc2CCc2ccc(Cl)cc21 [CLOMIPRAMINE]
PLATELET COUNT (po, 70 mg/kg, 72 h, tissue Blood, route oral GAVAGE, dose level Low, time 3 day, vehicle 100 % WATER): 1256.33 x10E3/uL
PLATELET COUNT (po, 70 mg/kg, 120 h, tissue Blood, route oral GAVAGE, dose level Low, time 5 day, vehicle 100 % WATER): 1281 x10E3/uL
GLUCOSE (po, 70 mg/kg, 120 h, tissue Plasma, route oral GAVAGE, dose level Low, time 5 day, vehicle 100 % WATER): 138.67 mg/dL

OXALIPLATIN
NEUTROPHIL (iv, 0 mg/kg, 120 h, tissue Blood, dose level Control, time 5 day, vehicle 100 % SALINE): 9.33%
PHOSPHORUS (iv, 8 mg/kg, 72 h, tissue Plasma, dose level High, time 3 day, vehicle 100 % SALINE): 10.17 mg/dL
